{"source": "patent US10314857B2", "about": "“Compositions and methods for treating carbon monoxide and/or cyanide poisoning” (dated 2019)", "key": {"[1]": {"tested_on": "whole human blood containing 50% COHgb", "assay": "CO2 production (gas-out) after injection into CO-poisoned human blood in closed-loop oxygenator circuit", "settings": "for increase in the gas-out concentration of CO2 versus controls: B12r versus controls (NSdeox, AA, B12a)"}, "[2]": {"settings": "frozen solution at −20° C.; cited from earlier work"}, "[3]": {"tested_on": "13C labeled CO in human blood (COHgb)", "assay": "13C labeled CO tracing: change in 13CO2/12CO2 ratio after antidote infusion", "settings": "20 min post-infusion, 300 mg OHCbl:300 mg ascorbic acid in 5 mL"}, "[4]": {"tested_on": "Long-Evans rats exposed to CO", "assay": "Spatial learning, Morris Water Maze path efficiency after CO exposure"}, "[5]": {"assay": "UV-Vis spectra of reduced hydroxocobalamin solution after exposure to air", "settings": "solution left under room air, spectrum after 30 minutes"}, "[6]": {"tested_on": "Sprague-Dawley rats exposed to 2500 ppm CO", "assay": "Brain oxygenation (PbtO2) in rats exposed to CO or medical air"}, "rats": {"tested_on": "rats", "assay": "Survival of animals after receiving B12r solution"}, "[7]": {"tested_on": "brain tissue of Long-Evans rats exposed to CO", "assay": "Immunohistochemistry of brain tissue (IBA-1, GFAP) after CO exposure"}, "[8]": {"tested_on": "carboxyhemoglobin (COHgb)", "assay": "COHgb half-life in blood by Resonance Raman spectroscopy", "settings": "O2 + B12r versus O2 alone, p<0.001"}, "[9]": {"settings": "serial injections, ascorbic acid given 30 min after OHCbl into the same blood"}}, "data": [{"molecule": "O=C1O[C@H]([C@@H](O)CO)C(O)=C1O", "values": [{"measurement": "fold increase in the gas-out concentration of CO2", "setting": "[1]; [9]", "result": 3, "unit": "fold"}, {"measurement": "median increase of gas-out CO2 over baseline", "setting": "[1]; [9]", "result": 1100, "unit": "ppm"}]}, {"molecule": "diaquo-cobinamide", "values": [{"measurement": "storage stability", "setting": "[2]", "result": "at least two months"}]}, {"molecule": "hydroxocobalamin", "values": [{"measurement": "change in the gas-out concentration of CO2", "setting": "[1]; serial injections at 30-minute intervals into COHgb blood: NS, then OHCbl, then ascorbic acid", "result": "< 500", "unit": "ppm"}, {"measurement": "CO2 production (FIG. 1)", "setting": "[1]; whole human blood containing 50% COHgb, over 30 min", "result": "Little or no CO2 was produced"}]}, {"molecule": "reduced hydroxocobalamin", "values": [{"measurement": "increase in the 13CO2/12CO2 ratio over baseline", "setting": "[3]", "result": 16.7, "unit": "%"}, {"measurement": "change in path efficiency over testing days", "setting": "[4]; 2 mL/kg IP, tested days 1, 3, 6, 8, no statistical differences between treatments (p>0.2)", "result": "no change"}, {"measurement": "cognitive ability / path efficiency (FIG. 12)", "setting": "[4]; hidden submerged platform", "result": "significantly improved the cognitive ability"}, {"measurement": "stability to air (re-oxidation)", "setting": "[5]", "result": "re-oxidation occurs quickly"}, {"measurement": "maximum PbtO2", "setting": "[6]; CO-exposed rats, 60 min post-infusion monitoring, did not differ from NS (p=0.61)", "result": 33, "unit": "mmHg"}, {"measurement": "time to achieve PbtO2 of 25 mmHg (τ25)", "setting": "[6]; CO-exposed rats, single 100 mg/kg IP dose after 30 min 2500 ppm CO", "result": "12 (95% CI 10, 13) min"}, {"measurement": "change in PbtO2 upon administration", "setting": "[6]; sham-exposure (medical air) rats, PbtO2 averaged 31 mmHg", "result": "no change"}, {"measurement": "increase in the gas-out concentration of CO2 versus controls", "setting": "[1]", "result": "five- to eight-fold increase"}, {"measurement": "increase in the gas-out concentration of CO2 versus controls", "setting": "[1]; listed as hydroxocobalamin with ascorbic acid", "result": "5 to 8", "unit": "fold"}, {"measurement": "increase in the gas-out concentration of CO2 versus controls", "setting": "[1]; listed as reduced form of hydroxocobalamin", "result": "5 to 8", "unit": "fold"}, {"measurement": "Median CO2 concentration (gas-out)", "setting": "[1]; human blood, 50% COHgb, 5 mL injection, 30 min post-infusion, from normalized AUC", "result": 1170, "unit": "ppm"}, {"measurement": "fold increase in the gas-out concentration of CO2", "setting": "[1]; pre-mixed solution injected into blood containing 45-55% COHgb", "result": "3-4 fold"}, {"measurement": "deaths after receiving the solution", "setting": "rats", "result": "none of our animals died"}, {"measurement": "myelinated axons in cortical layers", "setting": "[7]; CO-exposed rats, immediate single dose", "result": "partial preservation of myelinated axons"}, {"measurement": "CO-induced damage (cell count, demyelination, microglial activity)", "setting": "[7]; post-injury day 10, preliminary immunochemistry data", "result": "appeared to partially reverse CO-induced damage"}, {"measurement": "difference in COHgb half-life versus O2 alone", "setting": "[8]", "result": 15, "unit": "min"}]}]}
